Laboratory results: ChEMBL document CHEMBL5380794, “Discovery of a Potent and Selective STAT5 PROTAC Degrader with Strong Antitumor Activity In Vivo in Acute Myeloid Leukemia” (J Med Chem, 2023)

Key:
[1] = target: T1, Signal transducer and activator of transcription 5A (Homo sapiens) (UniProt P42229); assay: Inhibition of STAT5 phosphorylation in human MV4-11 cells assessed as reduction in […] phosphorylation at Y694 residue at 0.2 uM measured for 6 hrs by Western blot analysis; format: cell-based
T1 sequence (whole entry): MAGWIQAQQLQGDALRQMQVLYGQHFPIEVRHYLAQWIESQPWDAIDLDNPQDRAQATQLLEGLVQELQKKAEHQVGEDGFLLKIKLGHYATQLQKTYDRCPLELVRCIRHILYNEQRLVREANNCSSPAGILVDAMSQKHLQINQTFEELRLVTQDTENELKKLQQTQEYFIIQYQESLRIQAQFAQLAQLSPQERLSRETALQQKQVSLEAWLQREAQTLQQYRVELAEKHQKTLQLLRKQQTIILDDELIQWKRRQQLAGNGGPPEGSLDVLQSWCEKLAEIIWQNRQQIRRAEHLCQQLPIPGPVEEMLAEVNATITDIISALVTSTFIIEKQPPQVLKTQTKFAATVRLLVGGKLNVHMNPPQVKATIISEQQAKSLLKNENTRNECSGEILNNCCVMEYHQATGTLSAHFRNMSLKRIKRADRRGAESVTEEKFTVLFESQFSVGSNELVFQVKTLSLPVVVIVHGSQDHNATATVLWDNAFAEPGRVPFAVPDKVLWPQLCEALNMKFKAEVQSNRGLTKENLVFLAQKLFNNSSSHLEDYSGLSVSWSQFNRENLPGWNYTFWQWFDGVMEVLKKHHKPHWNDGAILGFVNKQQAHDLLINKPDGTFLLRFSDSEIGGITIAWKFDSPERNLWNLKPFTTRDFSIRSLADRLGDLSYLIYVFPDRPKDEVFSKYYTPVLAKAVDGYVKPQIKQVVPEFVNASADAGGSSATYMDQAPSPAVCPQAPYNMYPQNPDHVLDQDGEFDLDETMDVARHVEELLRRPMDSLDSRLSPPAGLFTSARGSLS

[2] = target: T1, Signal transducer and activator of transcription 5A (Homo sapiens); assay: Inhibition of STAT5 phosphorylation in human MV4-11 cells assessed as reduction in STAT5 level at 1 uM measured for 6 hrs by Western blot analysis; format: cell-based

Compound `CN(CCCC#Cc1cccc2c1CN(C1CCC(=O)NC1=O)C2=O)C(=O)CCN(C(=O)[C@@H]1CCCN1C(=O)[C@@H](NC(=O)c1cc2cc(C(F)(F)P(=O)(O)O)ccc2s1)C(C)(C)C)c1ccc(-c2nccs2)cc1` (some centres not stated) has an inhibition [1] greater than 80% and an inhibition [2] greater than 95%.
